The numbers were not newly measured in US20070010438A1, “Tumor treatment using beta-sheet peptides and radiotherapy” (priority 2005, published 2007), which cites them from elsewhere.

For the series the following is noted: C3H mice; cited from earlier work.

pimonidazole: the plasma half-life is 30 min.
